Values joined by “and” are separate entries in the source; they are usually repeats but may differ in a detail not shown here. Identical values can stand only once. This is a selection; strong and weak results do not stand in their true shares. Active and inactive are the calls of the source.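 How the source made its calls: active means compounds whose cell count with miR-34 switched on is under 0.7 times the count with it off; inactive means the rest.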

A short description of the test: sensitizers of A549 cells to miR-34 induction, primary screen, imaging, A549 dox-inducible miR-34, nuclei and caspase counts (AID 1347080). Further: test concentration not given here. To be noted: A549 miR-34 inducible, Hoechst nuclei count, 48 h; hits give low values; cell number ratio, induced over uninduced.
With `CN(CCCl)CCCl`, the fold change was inactive: 0.916 and inactive: 0.94.
